By inhibition is commonly meant the relative decrease from the control value, in per cent.

The chains behind the UniProt entries cited, without tags or fusion partners.
UniProt Q96T88, whole entry: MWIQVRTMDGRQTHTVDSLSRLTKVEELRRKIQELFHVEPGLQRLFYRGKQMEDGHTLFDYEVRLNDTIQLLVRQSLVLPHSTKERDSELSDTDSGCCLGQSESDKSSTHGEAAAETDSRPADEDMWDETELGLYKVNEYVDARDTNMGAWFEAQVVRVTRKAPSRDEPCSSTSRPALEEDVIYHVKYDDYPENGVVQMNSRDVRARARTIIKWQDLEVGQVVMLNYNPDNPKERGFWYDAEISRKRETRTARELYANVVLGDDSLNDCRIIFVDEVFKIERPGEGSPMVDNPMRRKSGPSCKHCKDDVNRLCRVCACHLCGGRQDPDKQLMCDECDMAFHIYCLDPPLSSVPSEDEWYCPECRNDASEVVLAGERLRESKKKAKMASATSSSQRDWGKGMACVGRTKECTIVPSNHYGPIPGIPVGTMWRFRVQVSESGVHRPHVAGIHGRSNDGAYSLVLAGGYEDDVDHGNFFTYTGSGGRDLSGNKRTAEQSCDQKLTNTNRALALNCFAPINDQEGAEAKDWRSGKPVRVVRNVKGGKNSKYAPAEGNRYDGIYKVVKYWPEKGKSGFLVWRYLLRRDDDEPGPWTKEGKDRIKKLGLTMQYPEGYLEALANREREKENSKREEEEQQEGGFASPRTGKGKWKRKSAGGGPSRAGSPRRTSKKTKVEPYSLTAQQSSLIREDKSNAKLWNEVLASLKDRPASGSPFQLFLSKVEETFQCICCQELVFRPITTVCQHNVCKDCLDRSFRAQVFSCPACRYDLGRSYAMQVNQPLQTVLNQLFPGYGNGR

These results are taken from PubChem BioAssay AID687016 (The Scripps Research Institute Molecular Screening Center, 2013).

The structures appear in SMILES notation. The list shows a part of the results, in another mix than the full data. Some salts and complexes are drawn in separate pieces, as the source files them; their charges need not balance. The source made the active and inactive calls. Rule as the data show it: active = inhibition above about 21%; inactive = the rest.

This experiment addresses E3 ubiquitin-protein ligase UHRF1 (Homo sapiens) (UniProt Q96T88). In words: UHRF1 methylated DNA binding inhibitors, primary screen, counter-screen for MBD2 inhibitor project, biochemical, TR-FRET, human UHRF1, single concentration (AID 687016).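 Also: UHRF1 SRA domain binding a hemimethylated CpG hairpin DNA probe; 0% = median of test compound wells and 100% = reference inhibitor.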 To be noted: UHRF1 binding to methylated oligo, at 4.4 µM, stronger effect = higher value. On the technique in general: Counterscreens check selectivity or assay interference.
`Cc1ccccc1NP(C)(=O)Nc1ccccc1C`: the inhibition was inactive: -1.35%.
With `O=[N+]([O-])c1cc([N+](=O)[O-])c(C(F)(F)F)c([N+](=O)[O-])c1O`, the inhibition is inactive: 1.83%.
For `CP(=O)(Nc1ccc2c(c1)OCCO2)Oc1ccccc1` (stereo not drawn), the inhibition was inactive: -2.2%.
The same measure for `CCOP(C)(=S)SCC(=O)NC(C)(CC)C(=O)O` (stereo not drawn): inactive: -2.39%.
As for `CCOP(=O)(CC)OCC`, the inhibition is inactive: 3.17%.
The same measure for `CP(=O)(Nc1ccc(SC(F)(F)F)cc1)Oc1ccc(F)cc1` (stereo not drawn): inactive: 1.36%; for `Cc1c(C(c2ccc3c(c2)OCO3)c2c(C)n(C)n(-c3ccccc3)c2=O)c(=O)n(-c2ccccc2)n1C.O=[N+]([O-])c1cc([N+](=O)[O-])c(O)c([N+](=O)[O-])c1`: inactive: 2.05%; for `O=[N+]([O-])c1ccc(OP2(=O)COCCO2)cc1` (stereo not drawn): inactive: -0.78%.
Turning to `O=[N+]([O-])c1cc([N+](=O)[O-])c(NCC2CCS(=O)(=O)C2)c([N+](=O)[O-])c1` (stereo not drawn), the inhibition was inactive: 0.04%.
Next, `Cc1cc(-c2cccc3ccccc23)c(C)cn1.O=[N+]([O-])c1cc([N+](=O)[O-])c(O)c([N+](=O)[O-])c1`: inactive: -2.27%; `CN(C)CCOC(=O)C(O)(c1ccccc1)C1CCCCC1` (stereo not drawn): inactive: 6.73%.
In the case of `COc1ccc(NP(C)(=O)Oc2ccccc2OC)cc1` (stereo not drawn), the inhibition was inactive: -2.22%.
Turning to `COc1ccc(OP(C)(=O)Nc2cccc(Br)c2)cc1` (stereo not drawn), the inhibition was inactive: 2.53%.
Regarding `CP(=O)(Nc1ccccc1)Oc1ccc(F)cc1` (stereo not drawn), the inhibition was inactive: -0.62%.
Turning to `CCCCCOc1ccc(NP(C)(=O)Oc2ccc(Cl)cc2Cl)cc1` (stereo not drawn), the inhibition is inactive: -0.25%.
As for `O=[N+]([O-])c1cc([N+](=O)[O-])c(OC2CCCCC2O)c([N+](=O)[O-])c1` (stereo not drawn), the inhibition was inactive: -2.44%.
Take `Cc1c([N+](=O)[O-])cc([N+](=O)[O-])c(Br)c1[N+](=O)[O-]`: the inhibition was inactive: 0.4%.
Consider `CCN(CC)CCCOC(=O)C(O)(c1ccccc1)C1CCCCC1` (stereo not drawn), for which the inhibition was inactive: 7.04%.
Next, `CCOC(=O)c1ccc(NP(C)(=O)Oc2ccc(F)cc2)cc1` (stereo not drawn): inactive: 2.19%; `COc1ccc(OP(C)(=O)Nc2ccc(SC(F)(F)F)cc2)cc1` (stereo not drawn): inactive: 0.98%; `CCN(CC)CCCNc1ccccc1[N+](=O)[O-].O=[N+]([O-])c1cc([N+](=O)[O-])c(O)c([N+](=O)[O-])c1`: inactive: -10.4%.
As to `COc1ccc2c(c1O)-c1c(O)c(OC)cc3c1[C@H](C2)[N+](C)(C)CC3.O=[N+]([O-])c1cc([N+](=O)[O-])c([O-])c([N+](=O)[O-])c1[O-]`, the inhibition is inactive: -0.12%.
Next, `O=C(OC1CN2CCC1CC2)c1ccc([N+](=O)[O-])cc1` (stereo not drawn): inactive: 4.34%; `O=C(OCCN1CCN(CCOCc2ccccc2)CC1)C(O)(c1ccccc1)c1ccccc1`: inactive: 1.83%.
The same measure for `CP(=O)(Nc1ccccc1F)Oc1ccccc1` (stereo not drawn): inactive: 4.85%; for `CC(C)c1ccc(OP(C)(=O)Nc2ccc(SC(F)(F)F)cc2)cc1` (stereo not drawn): inactive: -1.81%.
Next, `O=[N+]([O-])c1cc([N+](=O)[O-])c(Nc2ccc(Cl)cc2)c([N+](=O)[O-])c1`: inactive: -5.04%; `COc1ccccc1OP(C)(=O)Nc1ccc(C)cc1C` (stereo not drawn): inactive: 0.1%; `CP(=O)(Nc1ccccn1)Oc1ccccc1` (stereo not drawn): inactive: -2.41%.
In the case of `CCc1ccc(OP(C)(=O)O)cc1`, the inhibition is inactive: -1.98%.
As to `O=[N+]([O-])c1cc([N+](=O)[O-])c(Nc2ccccn2)c([N+](=O)[O-])c1`, the inhibition was inactive: 0.65%.
As for `Cc1c(NP(C)(=O)Oc2ccc(C(C)C)cc2)c(=O)n(-c2ccccc2)n1C` (stereo not drawn), the inhibition is inactive: 0.83%.
Turning to `COc1ccc(OP(C)(=O)Nc2ccccn2)cc1` (stereo not drawn), the inhibition was inactive: -3.95%.
Turning to `CN(C)CCOC(=O)C(O)(c1ccccc1)C1CCCC1` (stereo not drawn), the inhibition was inactive: -1.09%.
For `COc1ccccc1OP(C)(=O)Nc1ccc(Br)cc1` (stereo not drawn), the inhibition is inactive: -1.6%.
Take `CP(=O)(OCCOc1ccccc1)OCCOc1ccccc1`: the inhibition was inactive: 1.16%.
Take `CCCCCCCCCCCCCCCC1C[N+](C)(C)CCOP(C)(=O)O1` (stereo not drawn): the inhibition is inactive: 4.1%.
Next, `CP(=O)(Nc1ccc(Cl)cc1Cl)Oc1ccccc1` (stereo not drawn): inactive: 3.96%; `COc1ccccc1OP(C)(=O)Nc1ccc(C)c(C)c1` (stereo not drawn): inactive: -0.18%; `COc1ccc(OP(C)(=O)Nc2ccccc2Br)cc1` (stereo not drawn): inactive: 0.11%.
For the molecule `Cc1cc(C)cc(OP(C)(=O)Nc2cccc(C(F)(F)F)c2)c1` (stereo not drawn), the inhibition was inactive: -3.31%.
As for `O=C1C(O)=C([N+](=O)[O-])C(=O)C(O)=C1[N+](=O)[O-]`, the inhibition was active: 34.8%.
Consider `CCOC(=O)c1ccc(NP(C)(=O)Oc2ccc(Cl)cc2)cc1` (stereo not drawn), for which the inhibition is inactive: 1.16%.
As to `CP(=O)(OC12CC3CC(CC(C3)C1)C2)OC12CC3CC(CC(C3)C1)C2`, the inhibition was inactive: 4.47%.
For `Nc1ccc2c(ccc3cccnc32)n1.O=[N+]([O-])c1cc([N+](=O)[O-])c(O)c([N+](=O)[O-])c1`, the inhibition is inactive: -5.47%.
As for `CN(C)C(=O)c1c([N+](=O)[O-])cc([N+](=O)[O-])cc1[N+](=O)[O-]`, the inhibition was inactive: 6.74%.
Next, `CC(C)(C)c1ccc(OP(C)(=O)O)cc1`: inactive: -1.35%; `COc1ccccc1OP(C)(=O)Nc1ccccc1Br` (stereo not drawn): inactive: -1.16%.
Take `CP(=O)(Nc1ccc(Cl)cc1)Oc1ccc(F)cc1` (stereo not drawn): the inhibition is inactive: 6.73%.
For `O=C(OCCCN1CCCC1)C(O)(c1ccccc1)C1CCCCC1` (stereo not drawn), the inhibition was inactive: 1.48%.
Next, `COc1ccccc1OP(C)(=O)Nc1c(C)n(C)n(-c2ccccc2)c1=O` (stereo not drawn): inactive: 0.16%; `CCc1ccc(OP(C)(=O)Nc2cccnc2)cc1` (stereo not drawn): inactive: 2.11%; `CP(=O)(Oc1ccccc1)N1CCOC1=O` (stereo not drawn): inactive: -1.51%.
`COc1ccc(OP(C)(=O)Nc2ccc(Br)cc2)cc1` (stereo not drawn): the inhibition is inactive: 0.19%.
In the case of `CCN(CC)CC(O)COC(=O)C(O)(c1ccccc1)C1CCCCC1` (stereo not drawn), the inhibition is inactive: 0.34%.
Turning to `CP(=O)(Nc1ccccn1)Oc1ccc(Cl)cc1` (stereo not drawn), the inhibition is inactive: 1.2%.
On to `CCOC(=O)c1ccc(NP(C)(=O)Oc2ccc(OC)cc2)cc1` (stereo not drawn), for which the inhibition is inactive: 10.3%.
For the molecule `O=[N+]([O-])c1cc([N+](=O)[O-])c(O)c([N+](=O)[O-])c1.c1ccc(Oc2ccncc2)cc1`, the inhibition is active: 21.9%.
